Broadly, the IC50 is the midpoint of a concentration-inhibition curve.

The record followed here is patent US5955489A, “Taxane derivatives, the preparation thereof and formulations containing them” (Indea S.p.A., priority 1996, dated 1999).

This assay relates to Line MCF7-ADRr (adriamycin-resistant). Put plainly: cytotoxicity on an adriamycin-resistant cell line (Line MCF7-ADRr). It counts as cell-based. To be noted: read-out: IC50 Line MCF7-ADRr.
In the case of `CC(=O)O[C@@]12CO[C@@H]1CC1NN=C3C(=O)C4=C(C)[C@@H](OC(=O)[C@H](O)[C@@H](NC(=O)c5ccccc5)c5ccccc5)C[C@@](O)([C@@H](OC(=O)c5ccccc5)[C@H]2[C@]31C)C4(C)C` (stereo partly drawn) [Compound of example 2, 10-deacetyl-10-dehydro-Paclitaxel pyrazoline], the IC50 worked out at 600 nM.
To `CC(=O)O[C@@]12CO[C@@H]1CC1NN=C3C(=O)C4=C(C)[C@@H](OC(=O)[C@H](O)[C@H](CC(C)C)NC(=O)OC(C)(C)C)C[C@@](O)([C@@H](OC(=O)c5ccccc5)[C@H]2[C@]31C)C4(C)C` (stereo partly drawn) [Compound of example 5, 13-(N-Boc-3'-isobutyl)-isoserinyl-10-dehydrobaccatine III pyrazoline] belongs 190 nM; to `CC(=O)O[C@@]12CO[C@@H]1CC1NN=C3C(=O)C4=C(C)[C@@H](OC(=O)[C@H](O)[C@@H](NC(=O)OC(C)(C)C)c5ccccc5)[C@@H]5OC(=O)O[C@]5([C@@H](OC(=O)c5ccccc5)[C@H]2[C@]31C)C4(C)C` (stereo partly drawn) [Compound of example 6, 13-(N-Boc-phenyl-isoserinyl)-1,14-carbonate10-dehydro-10-deacetyl-baccatine III pyrazoline], 102 nM.
